Test results published in publication PMC11568203.

Molecular target: KLHDC10^41-C-EloB/C with a 10X Histidine tag on EloC (SPR) (UniProt Q6PID8)
Assay: SPR; Biacore T200; His-tagged KLHDC10 complex captured on Ni-NTA chip (about 300 RU); ubiquitin variants as analytes 2 uM to 0.125 uM, multi-cycle kinetics; 25 mM Tris, 200 mM NaCl, 0.1% Tween20, pH 7.4; 20 °C; 1:1 binding model

All the ubiquitin variants
Kd: 0.25 to 0.4 µM
